Measured values as given in ChEMBL document CHEMBL1159180, “Synthesis of 7-chloro-4-substituted aminoquinolines and their in vitro ability to produce methemoglobin in canine hemolysate” (1997).

Legend:
Conditions in all cases: Canis lupus familiaris
[1] = target: T1, NADH-cytochrome b5 reductase (Homo sapiens) (UniProt P00387); test: In vitro effect on methemoglobin reductase activity at specified 166 uM concentration; enzyme activity expressed as nmoles of methemoglobin reduced min-1.mg. protein -1
T1 sequence (whole entry): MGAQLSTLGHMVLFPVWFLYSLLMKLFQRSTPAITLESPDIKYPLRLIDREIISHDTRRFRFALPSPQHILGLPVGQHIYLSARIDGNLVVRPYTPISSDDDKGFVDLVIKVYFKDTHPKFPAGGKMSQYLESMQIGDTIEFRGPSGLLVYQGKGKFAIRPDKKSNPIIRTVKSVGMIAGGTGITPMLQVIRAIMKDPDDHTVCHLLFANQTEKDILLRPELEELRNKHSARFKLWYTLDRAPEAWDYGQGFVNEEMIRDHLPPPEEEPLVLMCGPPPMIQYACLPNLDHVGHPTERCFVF

[2] = target: T1, NADH-cytochrome b5 reductase (Homo sapiens); test: In vitro effect on methemoglobin reductase activity at specified 33 uM concentration; enzyme activity expressed as nmoles of methemoglobin reduced min-1.mg. protein -1
[3] = target: T1, NADH-cytochrome b5 reductase (Homo sapiens); test: In vitro effect on methemoglobin reductase activity at 166 uM concentration; enzyme activity expressed as nmoles of methemoglobin reduced min-1.mg. protein -1
[4] = target: T1, NADH-cytochrome b5 reductase (Homo sapiens); test: In vitro effect on methemoglobin reductase activity at 33 uM concentration; enzyme activity expressed as nmoles of methemoglobin reduced min-1.mg. protein -1
[5] = target: T1, NADH-cytochrome b5 reductase (Homo sapiens); test: Percentage inhibition of methemoglobin reductase by the compound at 133 uM concentration

SMILES | Methemoglobin [1] | Methemoglobin [2] | Methemoglobin [3] | Methemoglobin [4] | inhibition [5] [%]
OCCNc1ccnc2cc(Cl)ccc12 | 0.065 | 0.065 |  |  | 
COc1cc(NC(C)CCCN)c2ncccc2c1 (stereo unspecified) |  |  | 0.056 | 0.065 | 
Clc1ccc2c(NCCN3CCN(c4ccccc4)CC3)ccnc2c1 | 0.065 | 0.065 |  |  | 
O=NO |  |  | 0.065 | 0.065 | 
O=[N+]([O-])c1ccc(OCCNc2ccnc3cc(Cl)ccc23)cc1 |  |  | 0.059 | 0.065 | 
CC(=O)c1ccc(Nc2ccnc3cc(Cl)c([N+](=O)[O-])cc23)c([N+](=O)[O-])c1 |  |  | 0.065 | 0.065 | 
N#Cc1ccc(OCCNc2ccnc3cc(Cl)ccc23)cc1 | 0.005 | 0.065 |  |  | 
CN1CCN(CCCN2CCN(c3ccnc4cc(Cl)ccc34)CC2)CC1 | 0.065 | 0.065 |  |  | 
Clc1ccc2c(NCc3ccco3)ccnc2c1 | 0.057 | 0.065 |  |  | 
Clc1ccc2c(NCCN3CCNCC3)ccnc2c1 | 0.065 | 0.065 |  |  | 
O=[N+]([O-])c1cc2c(NCCO)ccnc2cc1Cl | 0.065 | 0.065 |  |  | 
O=[N+]([O-])c1ccc(NNc2ccnc3cc(Cl)ccc23)cc1 |  |  | 0.032 | 0.065 | 50
CCN(CC)CCCC(C)Nc1ccnc2cc(Cl)ccc12 (stereo unspecified) | 0.065 | 0.065 |  |  | 
Clc1ccc2c(NCCN3CCN(c4ccccn4)CC3)ccnc2c1 | 0.065 | 0.065 |  |  | 
CCN(CC)CCCC(C)NCCCN1CCN(c2ccnc3cc(Cl)ccc23)CC1 (stereo unspecified) | 0.065 | 0.065 |  |  | 
